Yeast mating assay 1: variants of the scFv Ab-14

Data: MIT Lincoln Laboratory AlphaSeq set, Engelhart et al. 2022, doi:10.1038/s41597-022-01779-4, as distributed in FLAb.

Binding partner: SARS-CoV-2 spike HR2 peptide, sequence PDVDLGDISGINAS.

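The parent was found by panning a naive human phage display library on the peptide. In library AAYL49, one, two or three CDR residues were substituted; doubles and triples were drawn at random. In AlphaSeq, yeast of one mating type display the scFv and yeast of the other type display the target. The frequency of each diploid, read from paired DNA barcodes, reflects how well the two displayed proteins bind. Scores were corrected for input abundance and mapped to Kd with protein pairs of known affinity run in the same pool. There are three technical replicates.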

Each scFv is VH, three GGGGS repeats, VL, as in the parent Ab-14, and differs from it in the CDRs of the heavy chain only.
VH: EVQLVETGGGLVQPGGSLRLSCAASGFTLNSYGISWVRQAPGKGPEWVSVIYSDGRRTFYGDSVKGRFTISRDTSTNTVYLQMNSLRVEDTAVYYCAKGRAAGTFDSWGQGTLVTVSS
VL: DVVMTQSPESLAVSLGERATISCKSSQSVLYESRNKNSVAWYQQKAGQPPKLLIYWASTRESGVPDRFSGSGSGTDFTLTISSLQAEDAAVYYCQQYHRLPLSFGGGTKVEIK

Each variant is given by its three heavy chain CDRs, as the data file delimits them; those of the parent are GFTLNSYGIS, VIYSDGRRTFYGDSVK, GRAAGTFDS.
All variants listed here change L29 of the VH, counted from its first residue.
The Kd shown is the geometric mean over detected replicates; a lower Kd is a better binder.
An entry "nd" has no value in the source: the pair was not observed among the diploids in any replicate. This suggests poor binding but is not conclusive.
In this assay the parent's reference entry averaged 4.4 nM; its copy inside this library read 13 µM (one replicate of three).
As a blank, each scFv also met three strains without target: over library AAYL49, 15% of these pairings were detected, typically at 11 µM and seldom below 680 nM. For each scFv, signals with the empty controls are counted beside the result.

Variant GFTKNSYGIS / VIYSDGRRTFYCDSVK / GRIAGTFDS gave 340 µM (3 of 3 replicates; controls 5 of 9). With GFTNNSYGWS / VIYWDGRRTFYGDSVK / GRAAGTFDS the result was 3.0 µM (1 of 3 replicates; controls 0 of 9). Variant GFTQNSYGIF / VIYSDGRRTFYGDSVK / GHAAGTFDS gave nd (0 of 3 replicates; controls 2 of 9). For GFTDNSYGIS / VIYSDGRRTFYGDSVK / GRAAGTTDS, the assay gave 310 nM (2 of 3 replicates; controls 1 of 9). With GFTMNSYGPS / VIYSDGRRTFYGDSVK / GRAAITFDS the result was 14 µM (2 of 3 replicates; controls 7 of 9). Variant GFTHNSYGIS / AIPSDGRRTFYGDSVK / GRAAGTFDS gave nd (0 of 3 replicates; controls 0 of 9). Variant GFTVNSYGIS / VIYSDGRRTYYGDSVK / GRAAGTFDQ showed 12 nM (3 of 3 replicates; controls 0 of 9).

With GFLTNSYGIS / VIYSDGRRTFYGDSVK / GRAAGTFIS the result was 8.0 µM (1 of 3 replicates; controls 2 of 9). Variant GFTQNSYGIS / VIYSDGRQTFYGDNVK / GRAAGTFDS showed nd (0 of 3 replicates; controls 2 of 9). Variant GFTRNSYGIS / VIYSDGRRTWYGFSVK / GRAAGTFDS gave 60 µM (1 of 3 replicates; controls 2 of 9). With GFTSNWYGIS / VIYSDGRRTFYGDSVK / GRAAGRFDS the result was 13 µM (2 of 3 replicates; controls 1 of 9). For GFHSNSYGIS / VIYSDGRRTFYGDAVK / GRAAGTFDS, the assay gave nd (0 of 3 replicates; controls 1 of 9). With GFTKNSYGIS / VIYSDGRRTFYGDSVK / GCAAGDFDS the result was 1.4 mM (2 of 3 replicates; controls 0 of 9). For GFTHNSYGIS / AIDSDGRRTFYGDSVK / GRAAGTFDS, the assay gave 31 µM (2 of 3 replicates; controls 0 of 9).

Variant GFTGNSYGIS / VIYSDGRRTDYGDSVK / GRAAGTFDN showed nd (0 of 3 replicates; controls 2 of 9). Variant GFTYNSWGIS / VIYSDGRRTFYGDSVK / GRAAGTNDS showed 18 µM (1 of 3 replicates; controls 2 of 9). Variant GFTMNSYTIS / VIYSDGRRTFYGDSIK / GRAAGTFDS showed 3.3 µM (1 of 3 replicates; controls 1 of 9). Variant GFTWNSYGIS / VIYSDGIRGFYGDSVK / GRAAGTFDS gave nd (0 of 3 replicates; controls 0 of 9). For GFTINSYGIS / VIYSDGMRTFYGDSVK / GRAAGTFYS, the assay gave 130 nM (3 of 3 replicates; controls 0 of 9). For GFTMNSYGIS / VIYSDGRRTFYGDSVK / GRAAGTQDS, the assay gave 200 µM (1 of 3 replicates; controls 1 of 9). With HFTANSYGIS / VIYSDGRRTFYGDSVK / GRAAGTMDS the result was nd (0 of 3 replicates; controls 0 of 9).

For GFTSNSYGIS / VIYSDGERTFYGDSVK / ARAAGTFDS, the assay gave nd (0 of 3 replicates; controls 0 of 9). For GFTTNSYGIS / VIYRDGRRTFYGHSVK / GRAAGTFDS, the assay gave nd (0 of 3 replicates; controls 0 of 9). Variant GFTKNSYGIV / VIYSDGRRTFYGDSVK / GRAAGTADS gave 110 µM (2 of 3 replicates; controls 1 of 9). Variant GFTFNSYGIS / VIYSDGRRTFYGDSVK / GRAAGTSDS showed nd (0 of 3 replicates; controls 1 of 9). Variant GFTSNSYGIS / VIYSDGRRTFYGDSVK / GRAADTFDS showed nd (0 of 3 replicates; controls 0 of 9). Variant LFTYNSYGIS / VCYSDGRRTFYGDSVK / GRAAGTFDS gave 21 µM (1 of 3 replicates; controls 5 of 9). Variant GFTCNSYGSS / VIYSDSRRTFYGDSVK / GRAAGTFDS gave 19 µM (2 of 3 replicates; controls 3 of 9).

Variant GETCNSYGIS / VIYSDTRRTFYGDSVK / GRAAGTFDS showed nd (0 of 3 replicates; controls 5 of 9). Variant GFTDNSYGIS / VIYSDGRRTFYGDSVK / GRAAGTFDI showed 14 µM (1 of 3 replicates; controls 0 of 9). Variant GFRCNSYGIS / VIYSDGRRTFYGDSVK / NRAAGTFDS showed nd (0 of 3 replicates; controls 1 of 9). With GFTNNSYGIS / VKYSDGRRTFYGDSVW / GRAAGTFDS the result was nd (0 of 3 replicates; controls 1 of 9). Variant GPTYNSYGIS / VIYYDGRRTFYGDSVK / GRAAGTFDS showed nd (0 of 3 replicates; controls 1 of 9). For GFTPNSYGIS / VIYSDGIRTFYGDQVK / GRAAGTFDS, the assay gave 33 µM (3 of 3 replicates; controls 3 of 9). Variant GFTTNSYGIS / GIYSDGRRTFYGDSVK / GRAAGTFIS showed 2.2 µM (1 of 3 replicates; controls 1 of 9).

With GFTMNSYGIS / VIYSDGRRTFYGDMVK / LRAAGTFDS the result was nd (0 of 3 replicates; controls 1 of 9). For GFTNNSRGIS / VIYSDGRRTFYGDSVK / SRAAGTFDS, the assay gave nd (0 of 3 replicates; controls 0 of 9).

Top 4 of the variants detected in all replicates, tightest first:

{"CDR-H1": "GFTVNSYGIS", "CDR-H2": "VIYSDGRRTYYGDSVK", "CDR-H3": "GRAAGTFDQ", "apparent Kd": "12 nM", "replicates with signal": "3/3", "empty controls": "0/9"}
{"CDR-H1": "GFTINSYGIS", "CDR-H2": "VIYSDGMRTFYGDSVK", "CDR-H3": "GRAAGTFYS", "apparent Kd": "130 nM", "replicates with signal": "3/3", "empty controls": "0/9"}
{"CDR-H1": "GFTPNSYGIS", "CDR-H2": "VIYSDGIRTFYGDQVK", "CDR-H3": "GRAAGTFDS", "apparent Kd": "33 µM", "replicates with signal": "3/3", "empty controls": "3/9"}
{"CDR-H1": "GFTKNSYGIS", "CDR-H2": "VIYSDGRRTFYCDSVK", "CDR-H3": "GRIAGTFDS", "apparent Kd": "340 µM", "replicates with signal": "3/3", "empty controls": "5/9"}